Reference: patent US20060153834A1

Experiments:
[1] = target: 14C-Fc fragment of HIgG (human); test: secondary screening, batch, Fc fragment non-competitive (PBS)
[2] = target: Fc fragment of HIgG (unlabeled) (human); test: batch adsorption to resin, A280 of flow through, mass balance
[3] = target: 14C-Fc fragment of HIgG (human); test: as above
[4] = target: 14C-HIgG (human); test: secondary screening, batch, HIgG competitive (spiked in MEM)
[5] = target: 14C-Fc fragment of HIgG (human); test: secondary screening, batch, Fc fragment competitive (spiked in MEM)

Protein A Sepharose CL-4B (from UniProt P38507 37-477)
Bound % [1]: 93.7%
binding capacity, Unlabeled Fc [2]: 9.9 mg/mL
binding capacity, 14C-Fc [3]: 4.9 mg/mL
Bound % [4]: 83.4%
Bound % [5]: 78.6%
